Structures can show the parent of a compound that is named as a salt.
Tests used:
[1] = target: Sodium-dependent dopamine transporter (Rattus norvegicus, UniProt P23977)
[2] = target: Sodium-dependent serotonin transporter (Rattus norvegicus, UniProt P31652)
[3] = target: 5-hydroxytryptamine receptor 2A (Rattus norvegicus, UniProt P14842)

Chains of the proteins cited; added tags and fusions are not shown.
UniProt P23977, whole entry: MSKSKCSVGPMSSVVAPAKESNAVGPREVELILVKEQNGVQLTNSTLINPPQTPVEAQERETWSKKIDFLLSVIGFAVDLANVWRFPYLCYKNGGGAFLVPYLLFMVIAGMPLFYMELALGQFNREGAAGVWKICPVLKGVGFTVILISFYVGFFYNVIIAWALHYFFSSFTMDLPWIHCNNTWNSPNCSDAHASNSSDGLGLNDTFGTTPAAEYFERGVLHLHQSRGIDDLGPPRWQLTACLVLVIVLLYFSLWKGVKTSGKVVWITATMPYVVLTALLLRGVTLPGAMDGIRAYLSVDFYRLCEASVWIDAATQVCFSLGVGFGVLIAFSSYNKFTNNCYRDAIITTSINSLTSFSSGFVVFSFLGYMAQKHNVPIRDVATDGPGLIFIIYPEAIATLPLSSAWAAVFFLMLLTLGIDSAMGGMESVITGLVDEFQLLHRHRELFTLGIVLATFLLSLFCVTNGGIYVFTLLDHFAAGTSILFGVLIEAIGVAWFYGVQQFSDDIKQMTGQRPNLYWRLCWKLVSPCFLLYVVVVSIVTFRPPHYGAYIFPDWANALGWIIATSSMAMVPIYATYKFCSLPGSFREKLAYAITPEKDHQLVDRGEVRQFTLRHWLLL
UniProt P31652, whole entry: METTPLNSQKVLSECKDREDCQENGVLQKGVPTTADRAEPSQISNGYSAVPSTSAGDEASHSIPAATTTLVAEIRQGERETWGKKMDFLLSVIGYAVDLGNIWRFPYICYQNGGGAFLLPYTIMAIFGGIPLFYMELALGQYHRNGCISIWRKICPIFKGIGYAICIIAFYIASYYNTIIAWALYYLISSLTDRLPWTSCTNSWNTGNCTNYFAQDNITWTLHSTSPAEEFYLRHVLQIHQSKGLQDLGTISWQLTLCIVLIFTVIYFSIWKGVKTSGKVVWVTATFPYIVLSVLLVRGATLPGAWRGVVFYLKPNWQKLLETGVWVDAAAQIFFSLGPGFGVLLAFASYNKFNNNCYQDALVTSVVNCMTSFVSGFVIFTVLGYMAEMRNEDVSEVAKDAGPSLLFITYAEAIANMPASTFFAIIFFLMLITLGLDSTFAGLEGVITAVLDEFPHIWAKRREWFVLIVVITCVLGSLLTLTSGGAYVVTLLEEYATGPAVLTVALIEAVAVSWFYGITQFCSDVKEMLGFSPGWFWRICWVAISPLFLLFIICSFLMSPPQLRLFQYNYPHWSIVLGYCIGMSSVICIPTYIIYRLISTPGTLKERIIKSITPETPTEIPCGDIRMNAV
UniProt P14842, whole entry: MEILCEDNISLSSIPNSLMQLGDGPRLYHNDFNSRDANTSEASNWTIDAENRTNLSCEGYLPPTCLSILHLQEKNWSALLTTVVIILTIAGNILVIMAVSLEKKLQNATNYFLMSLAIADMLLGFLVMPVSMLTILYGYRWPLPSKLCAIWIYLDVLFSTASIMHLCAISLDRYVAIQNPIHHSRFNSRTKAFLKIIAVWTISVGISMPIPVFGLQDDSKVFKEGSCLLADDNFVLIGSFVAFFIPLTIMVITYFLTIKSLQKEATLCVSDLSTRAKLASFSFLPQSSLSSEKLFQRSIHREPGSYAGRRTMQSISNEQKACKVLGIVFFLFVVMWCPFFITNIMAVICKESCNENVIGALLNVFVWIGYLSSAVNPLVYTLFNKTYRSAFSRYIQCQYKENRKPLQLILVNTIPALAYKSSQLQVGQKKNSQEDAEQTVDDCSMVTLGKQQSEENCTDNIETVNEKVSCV

Compound | Ki [2] [nM] | further results
CN[C@H]1C[C@H](c2ccc(Cl)c(Cl)c2)c2ccccc21 [CAS_96850-13-4] |  | Ki [1]: 0.99 nM
CN1Cc2c(N)cccc2[C@H](c2ccccc2)C1 [(+/-)-2-Methyl-4-phenyl-1,2,3,4-tetrahydro-isoquinolin-8-ylamine] | 830 | 
COc1ccc2c(c1)CN(C)CC2c1ccc(Cl)c(Cl)c1 (centres undefined) | 3.7 | 
CN(C)CCCC1(c2ccc(F)cc2)OCc2cc(C#N)ccc21 (centres undefined) [CITALOPRAM HYDROBROMIDE] |  | Ki [3]: 9200 nM

Reference: BindingDB's records for doi:10.1111/j.1471-4159.1985.tb08803.x (Lundbeck Ais, 1985)
